Data published in patent US4906655A, “Novel 1,2-cyclohexylaminoaryl amides useful as analgesic agents” (dated 1990).

Sequences of proteins named here, by UniProt entry; tags and fusion partners are left off. A change or cut given only in a name is not applied to a line headed by its entry. Residues count along the entry.
UniProt P41144: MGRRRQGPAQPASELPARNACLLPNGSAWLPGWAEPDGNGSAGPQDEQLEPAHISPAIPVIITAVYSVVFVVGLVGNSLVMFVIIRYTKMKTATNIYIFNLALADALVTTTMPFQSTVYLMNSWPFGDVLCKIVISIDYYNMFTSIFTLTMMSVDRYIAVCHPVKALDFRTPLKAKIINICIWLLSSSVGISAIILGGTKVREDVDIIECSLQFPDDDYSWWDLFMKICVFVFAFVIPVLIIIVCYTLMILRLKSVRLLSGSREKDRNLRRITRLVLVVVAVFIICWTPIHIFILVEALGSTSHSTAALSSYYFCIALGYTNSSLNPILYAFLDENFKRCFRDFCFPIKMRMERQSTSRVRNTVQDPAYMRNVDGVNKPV
UniProt A0ACM8Q262, 1-400: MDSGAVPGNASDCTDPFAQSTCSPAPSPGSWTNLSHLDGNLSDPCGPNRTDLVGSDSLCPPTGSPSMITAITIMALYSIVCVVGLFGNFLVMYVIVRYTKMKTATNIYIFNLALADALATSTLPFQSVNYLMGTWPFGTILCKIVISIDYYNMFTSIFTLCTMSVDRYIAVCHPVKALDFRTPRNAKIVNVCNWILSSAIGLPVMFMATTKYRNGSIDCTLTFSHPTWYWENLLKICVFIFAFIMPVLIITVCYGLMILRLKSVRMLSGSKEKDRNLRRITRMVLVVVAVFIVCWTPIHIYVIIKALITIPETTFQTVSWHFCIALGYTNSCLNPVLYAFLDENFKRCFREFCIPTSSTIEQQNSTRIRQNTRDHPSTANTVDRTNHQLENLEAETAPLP

Assays:
kappa opioid receptor = kappa opioid receptor (Cavia porcellus, UniProt P41144); assay: kappa opioid receptor binding, tritiated etorphine, brain homogenates; settings: for mu/k (mu/kappa ratio of ki): ratio of mu ki to kappa ki
mu opioid receptor = mu opioid receptor (Cavia porcellus, UniProt A0ACM8Q262); assay: mu opioid receptor binding, tritiated DAGO, brain homogenates

Structure (SMILES)	Ki (kappa opioid receptor) [µM]	mu/k (mu/kappa ratio of ki) (kappa opioid receptor)	Ki (mu opioid receptor) [µM]
CN(C(=O)Cc1cccc2c1CCO2)[C@H]1CC[C@@]2(CCCO2)C[C@@H]1N1CCCC1 (single isomer, unassigned)	0.0097	508	4.93
CN(C(=O)Cc1cccc2c1COC2=O)[C@H]1CC[C@@]2(CCCO2)C[C@@H]1N1CCCC1 (single isomer, unassigned)	0.0053	541	2.87
